# Patent US20100029622A1, “MICROEMULSIONS” (NEUROSCIENZE PHARMANESS S.C.A.R.L., priority 2008, published 2010)
# Biological target: opioidergic receptors δ (Mus musculus, UniProt P32300)
# Experiment: Radioreceptorial binding, receptors δ ([3H]-DPDPE displacement, brain membranes)
# Design: species or system mice
# Conditions: read-out: Ki δ, 1 nM [3H]-DPDPE, 25° C.
smiles,measurement,value
CCC(=O)N1CCC2CCC(C1)N2CC=C(C)c1ccc(Cl)c2ccccc12 (centres unmarked),Ki,2000 nM
CCC(=O)N1C2CCC1CN(CC=C(C)c1ccc(Cl)c3ccccc13)CC2 (centres unmarked),Ki,> 5000 nM
